Compound activity deposited in PubChem by National Center for Advancing Translational Sciences (NCATS).
The list is not random: actives were taken first. Their share in the collection is about 2.3%.
miR-21 reporter – miR-21 reporter, rising signal; HeLa miR-21 FLuc reporter, luciferase, 48 h; Potency, µM (titrated, usually from 38.3 µM); 340,000 tested, under 10 active; AID 2288; active = well fitted rising curve with a large enough effect; inconclusive = small, poorly fitted or top-dose-only effect; inactive = no such curve, though single readings can be large or run the other way;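 also: miR-21 action dims this reporter so a rising signal means less miR-21 action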
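Using DMEM plus 10% FBS, HeLa miR-21-FLuc cells are incubated with test compounds (final up to about 40uM) for 48 hours; firefly luciferase signal is then imaged following reagent-mediated lysis.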
Nrf2 ARE act – activates Nrf2 signaling; Potency, µM (top dose mostly 46.1 µM), actives largely listed as activators; actives 0.31% (n = 410,000); AREc32 ARE-luciferase reporter (MCF7-derived line), luminescence, 24 h; note: nearly all actives have a fitted effect of over 65% in size
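For detection, Steady-Glo was added and plates sat 30 min at RT; before that, AREc32_Fluc cells grown overnight in OPTI-MEM/5% FBS had been treated with 23 nL compound for 24 hr at 37 deg C.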
GRP78 ERSR act – inducers of ER stress response in human glioma cells. U87-MG GRP78 promoter luciferase reporter, 16 h. Potency, µM, actives largely listed as activators. actives 0.02% (n = 420,000). AID 602332; note: series mostly up to about 76 µM; nearly all actives have a fitted effect of over 35% in size
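ERSR induction read as luciferase luminescence (Bright-Glo, 10 min at room temperature) in stably transfected human U87-MG glioma cells exposed to compounds for 16 h, using GRP78 as sensor.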
A549 tox-1 – A549 cytotoxicity, counter-screen for Nrf2 inhibitors; actives 0.16% (n = 390,000); A549 ARE-Fluc cells, CellTiter-Fluor viability, 18-24 h; Potency, µM (series often up to 46 µM), hits mostly inhibitors
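A549 ARE-Fluc cells in 5% FBS OPTI-MEM, 5000 cells/well, rested 2 h then exposed to compounds in concentration-response for 18-24 h at 37 °C. Viability by CellTiter-Fluor fluorescence (Ex 405/Em 525) after 30 min; luciferase luminescence (BugLite, 15 min, RT) read afterwards.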
Mito fusion act – inhibitors of mitochondrial division or activators of mitochondrial fusion; AID 485298; actives 0.23% (n = 320,000); S. cerevisiae fusion-defective mutant growth rescue, CellTiterGlo 48 h; Potency, µM (titrated, usually from 46.1 µM), usual class: activators; note: nearly all actives have a fitted effect of over 45% in size
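Compounds are tested for their ability to restore growth of mitochondrial fusion-defective yeast strains at non-permissive 37C in YPEG medium over 48 hours. Viability is quantified by luciferase luminescence.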
Nrf2 block – Nrf2 pathway inhibition; A549 ARE-Fluc reporter, luciferase luminescence, 18-24 h; Potency, µM (titrated, usually from 46 µM), hits mostly inhibitors; actives 2.1% (n = 360,000); AID 504444; note: nearly all actives have a fitted effect of over 60% in size
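Concentration-response testing used A549 ARE_Fluc cells at 5000 cells/well. Following an 18-24 h compound incubation, viability was read by fluorescence (Ex 405/Em 525) and luciferase output by luminescence.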
FLuc enzyme inh – blocks purified firefly luciferase in Nrf2 counterscreen; actives 4% (n = 1,400); Potency, µM (doses to about 57.5 µM), most hits filed as inhibitors; shares compounds with Nrf2 block; AID 720522; purified firefly luciferase, luminescence inhibition; note: nearly all actives have a fitted effect of over 65% in size
A549 tox-2 – A549 cytotoxicity, Nrf2 inhibitor counterscreen. Potency, µM (series often up to 46.1 µM), most hits filed as inhibitors. actives 2% (n = 1,400). A549 ARE-Fluc cells, cytotoxicity counterscreen. shares compounds with Nrf2 block;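 note: cells exposed to compounds for 18 to 24 hours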
Nrf2 ARE inh – confirmation of Nrf2 inhibitors in A549 ARE reporter cells; Potency, µM (series often up to 46.1 µM), usual class: inhibitors; shares compounds with Nrf2 block; A549 ARE-firefly luciferase reporter, luminescence; actives 74% (n = 1,400); note: nearly all actives have a fitted effect of over 65% in size
Large screens that a line does not name were inactive (follow-up assays come after a bar, where shown); ! = repeats disagree. Unless noted, calls come from the whole dose curve; as a rule, active = well fitted curve in the direction sought with a large enough effect; inconclusive = small, poorly fitted or top-dose-only effect, or another doubt; inactive = no such curve, though single readings can be large; an effect the other way counts as inactive or inconclusive.

Cc1nnc2ccc(N3CCN(c4ccccn4)CC3)nn12	none
O=C(CN1C(=O)c2ccccc2S1(=O)=O)c1ccc2c(c1)OCCCO2	miR-21 reporter inconclusive, Nrf2 block 0.184µM | FLuc enzyme inh inactive | A549 tox-2 inactive | Nrf2 ARE inh 8.2µM
O=C(CN1C(=O)c2ccccc2S1(=O)=O)c1ccc2c(c1)OCCO2	miR-21 reporter inconclusive, Nrf2 block 0.0731µM | FLuc enzyme inh inactive | A549 tox-2 inactive | Nrf2 ARE inh 5.17µM
O=C(CN1C(=O)c2ccccc2S1(=O)=O)c1cccc(Br)c1	none
COc1ccc(OCCn2nnc3sc4c(c3c2=O)CCC(C(C)(C)C)C4)cc1 (configuration not stated)	none (no result: GRP78 ERSR act, Mito fusion act)
CC1Cc2ccccc2N1C(=O)CSc1nc(-c2ccccc2)cs1 (configuration not stated)	Nrf2 block inconclusive
COc1ccc(Cl)cc1NC(=O)CSC1=Nc2ccccc2C2=NC(CCC(=O)NCc3ccc(F)cc3)C(=O)N12 (configuration not stated)	A549 tox-1 inconclusive, Nrf2 block 3.66µM (no result: Mito fusion act) | FLuc enzyme inh inactive | A549 tox-2 inconclusive | Nrf2 ARE inh 14.6µM
O=C(Nc1ccccc1)c1ccc(Nc2c([N+](=O)[O-])cc([N+](=O)[O-])c3ccccc23)cc1	Nrf2 block 7.31µM | FLuc enzyme inh inactive | A549 tox-2 inactive | Nrf2 ARE inh 5.17µM
CCN(CC)c1ccc(C(=C2C=CC(=[N+](CC)CC)C=C2)c2ccccc2)cc1	A549 tox-1 9.2µM, Nrf2 block 1.3µM (no result: miR-21 reporter, Mito fusion act) | FLuc enzyme inh 21.3µM | A549 tox-2 6.51µM | Nrf2 ARE inh 0.731µM
CCN(CC)c1ccc(C(=C2C=CC(=[N+](CC)Cc3cccc(S(=O)(=O)[O-])c3)C=C2)c2ccc(N(CC)Cc3cccc(S(=O)(=O)O)c3)cc2)cc1	none (no result: miR-21 reporter, Nrf2 ARE act, A549 tox-1, Mito fusion act, Nrf2 block)
O=C(CCc1nc(-c2ccc(Cl)cc2)no1)NC1CCCCC1	Nrf2 block inconclusive
O=C(CCCc1nc(-c2ccc(Cl)cc2)no1)NC1CCCC1	Nrf2 block 4.11µM | FLuc enzyme inh inactive | A549 tox-2 inactive | Nrf2 ARE inh 5.17µM
COc1ccc(/C=C/c2cc(-c3ccc(C)cc3)o[n+]2C)cc1	miR-21 reporter inconclusive, A549 tox-1 inconclusive, Nrf2 block 8.2µM | FLuc enzyme inh inactive | A549 tox-2 inconclusive | Nrf2 ARE inh 2.91µM
Cc1cc(C[n+]2ccccc2)c2nsnc2c1	Nrf2 block inconclusive | FLuc enzyme inh inactive | A549 tox-2 inactive | Nrf2 ARE inh 2.59µM
N/C(=N\OC(=O)c1cccs1)c1ccc(Cl)cc1	Nrf2 ARE act inconclusive, Nrf2 block inconclusive
COC(=O)CSc1ncnc2c1sc1nc3c(cc12)COC(C)(C)C3	Nrf2 block 2.91µM | FLuc enzyme inh inconclusive | A549 tox-2 inactive | Nrf2 ARE inh 7.31µM
Cc1cc(C)c2nc(NNC(=O)c3ccc(S(=O)(=O)N4CCCC(C)C4)cc3)sc2c1 (configuration not stated)	A549 tox-1 inconclusive, Nrf2 block 4.11µM | FLuc enzyme inh inactive | A549 tox-2 inactive | Nrf2 ARE inh 6.51µM
CC1CCCN(S(=O)(=O)c2ccc(C(=O)Nc3nnc(C4CC4)o3)cc2)C1 (configuration not stated)	A549 tox-1 inconclusive, Nrf2 block 5.8µM | FLuc enzyme inh inactive | A549 tox-2 inconclusive | Nrf2 ARE inh 9.2µM
CC1CCCN(S(=O)(=O)c2ccc(C(=O)Nc3nnc(-c4ccccc4Cl)o3)cc2)C1 (configuration not stated)	Nrf2 block inconclusive
CCOc1ccc(S(=O)(=O)NCc2ccncc2)cc1NC(=O)c1ccccc1	Nrf2 block 0.461µM (no result: miR-21 reporter) | FLuc enzyme inh inactive | A549 tox-2 inactive | Nrf2 ARE inh 3.66µM
CCOc1ccc(S(=O)(=O)NCc2cccnc2)cc1NC(=O)c1ccccc1F	none
CCOc1ccc(S(=O)(=O)NCc2ccncc2)cc1NC(=O)c1ccccc1F	Nrf2 block 2.59µM | FLuc enzyme inh inactive | A549 tox-2 inactive | Nrf2 ARE inh inconclusive
CCc1nc(NCCO)c(C#N)c2c1CSC(C)(C)C2	none
CCn1c(C(=O)N2CCC(Cc3ccccc3)CC2)cc2sccc21	none (no result: Nrf2 block)
COc1cc2nc(CN(C)Cc3ccc(SC)cc3)[nH]c(=O)c2cc1OC	none
O=c1c(-c2cccs2)nc2cnc(N3CCOCC3)nc2n1CCc1ccccc1	none (no result: miR-21 reporter, Nrf2 ARE act, A549 tox-1, Mito fusion act, Nrf2 block)
Cc1cc(C)cc(NC(=O)CN(c2cccc(C)c2C)S(=O)(=O)c2ccccc2)c1	none (no result: Mito fusion act)
CN1C(C(=O)Nc2ccc(OC(F)(F)F)cc2)=CC(c2cccs2)=NS1(=O)=O	Nrf2 block 3.66µM! | FLuc enzyme inh inactive | A549 tox-2 inactive
COc1ccc(/C(N)=N/OC(=O)CSc2ccccc2)cc1OC	Nrf2 block inconclusive
COc1ccc(CN(C)C(=O)C23CC4CC(CC(C4)C2)C3)c(OC)c1	none
Nc1cc(OC(=O)c2ccc(F)cc2)nn1S(=O)(=O)c1ccc(F)cc1	Nrf2 block inconclusive
Cc1ccc(S(=O)(=O)n2nc(OC(=O)c3ccccc3C)cc2N)cc1	Nrf2 block 5.8µM | FLuc enzyme inh inactive | A549 tox-2 inactive | Nrf2 ARE inh 2.31µM
COc1ccc(C(=O)Oc2cc(N)n(S(=O)(=O)c3ccc(C)cc3)n2)cc1	Nrf2 block 7.31µM | FLuc enzyme inh inactive | A549 tox-2 inactive | Nrf2 ARE inh 2.06µM
COc1ccccc1C(=O)Oc1cc(N)n(S(=O)(=O)c2ccc(C)cc2)n1	Nrf2 block inconclusive
Cc1ccccc1C(=O)NC1(C(F)(F)F)C(=O)Nc2c1c(=O)[nH]c(=O)n2-c1ccc(F)cc1 (configuration not stated)	none (no result: Mito fusion act)
Nc1cc(S(=O)(=O)N2CCOCC2)ccc1Oc1cccc(Br)c1	Nrf2 block 8.2µM (no result: miR-21 reporter) | FLuc enzyme inh inactive | A549 tox-2 inactive | Nrf2 ARE inh 8.2µM
CCC(C)(C)NC(=O)C(c1ccc(C)cc1)N(Cc1cccnc1)C(=O)c1csnn1 (configuration not stated)	none
O=C(Nc1cccc(Cl)c1)c1ccc(S(=O)(=O)NCC2CCCO2)cc1 (configuration not stated)	Nrf2 block 4.61µM | FLuc enzyme inh inactive | A549 tox-2 inactive | Nrf2 ARE inh 13µM
